Source: PMC9463489 (Journal of Pharmaceutical Analysis, 2022)
“And” between values parts separate entries of the source, which are not always exact repeats. Equal entries are not always repeated.

How the values were obtained:
[1] = molecular target: T1, human pancreatic lipase (hPL) (Homo sapiens, UniProt P16233); experiment: fluorescence-based hPL inhibition assay; type: biochemical; settings: hPL-catalyzed 4-MUO hydrolysis; 4-MUO 5 μM, 37 °C, 20 min
T1 sequence (P16233 17-465): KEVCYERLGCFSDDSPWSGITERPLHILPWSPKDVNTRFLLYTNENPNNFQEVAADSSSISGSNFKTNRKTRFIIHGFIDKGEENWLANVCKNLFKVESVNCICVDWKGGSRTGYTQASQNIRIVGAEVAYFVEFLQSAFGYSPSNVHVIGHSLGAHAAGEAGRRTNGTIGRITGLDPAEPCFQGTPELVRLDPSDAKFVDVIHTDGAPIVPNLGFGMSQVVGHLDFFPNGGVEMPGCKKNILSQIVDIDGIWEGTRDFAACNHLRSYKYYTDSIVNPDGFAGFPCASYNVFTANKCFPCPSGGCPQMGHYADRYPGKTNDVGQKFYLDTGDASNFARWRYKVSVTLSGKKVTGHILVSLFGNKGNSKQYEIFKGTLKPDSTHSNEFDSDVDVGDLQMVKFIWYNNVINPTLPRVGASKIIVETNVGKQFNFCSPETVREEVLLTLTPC

[2] = molecular target: T1, human pancreatic lipase (hPL); experiment: inhibition kinetics against hPL-catalyzed 4-MUO hydrolysis; type: biochemical; settings: read-out: inhibition constant (Ki)

Row | Substance | pIC50 [1] | Ki [2]
1 | rhodiosin | <4 | –
2 | catechin gallate [CG] | 7.68 ± 0.23 | 82 nM and < 100 nM
